Laboratory results taken from article PMC13070491, “Single-nucleus transcriptomics, pharmacokinetics, and pharmacodynamics of CDK4/6 and mTOR inhibition in a Phase 0/1 trial of recurrent high-grade glioma” (Neuro-Oncology, 2025).

System: GB126, GB239 and GB86 patient-derived cell lines
Assay: In vitro single-cell RNA sequencing, analyses across the cell lines (pseudobulk differential gene expression, GSEA, non-cycling cells)
Assay type: cell-based, human
Method: Patient-derived glioma stem cell lines (GSCs; GB126, GB86, and GB239) were established from resected GBM tumor tissue. Cell lines were genetically profiled for mutations and copy number aberrations using the IvySeq custom gene panel. […] GB239 was derived from a tumor sample included in this Phase 0 trial (tumor sample: 100-0039). All human GSCs were cultured as described previously.[12]
Following the fifth day of drug exposure, cells were harvested, cryopreserved to be processed at a later point, or immediately processed for single-cell RNA sequencing (10x Genomics, 3’ version 3). The single-cell RNA sequencing data were then processed via cellranger count and Seurat. Briefly, cells were filtered out based on the following criteria: minimum number of genes detected >500 and <10 000 with a maximum percentage of mitochondrial genes set to 10%. Statistical assessment was made between the malignant proportions of each cell state using a 2-sided paired t-test.
Descriptive statistics of the clinical data are included in Table 1. Comparisons between groups were conducted using a 2-sided or paired 2-sided t-test, where indicated. P < .05 was considered significant. Multiple hypothesis test corrections (ie, false discovery rate correction) were applied for snRNAseq pseudobulk differential expression analysis.

CN(C)C(=O)c1cc2cnc(Nc3ccc(N4CCNCC4)cn3)nc2n1C1CCCC1 [ribo]
log2FoldChange (gene CHAT, ribociclib versus control (DMSO)): -1.043
log2FoldChange (gene CHEK1, ribociclib versus control (DMSO)): -1.116
log2FoldChange (gene CHRDL2, ribociclib versus control (DMSO)): -1.0334
log2FoldChange (gene CHRNA5, ribociclib versus control (DMSO)): -1.177
log2FoldChange (gene CHST1, ribociclib versus control (DMSO)): -1.011
log2FoldChange (gene CKAP2, ribociclib versus control (DMSO)): -1.032
log2FoldChange CLEC3A (gene CLEC3A, ribociclib versus control (DMSO)): 1.401
log2FoldChange (gene CLGN, ribociclib versus control (DMSO)): -1.046
log2FoldChange (gene CLN6, ribociclib versus control (DMSO)): -1.223
log2FoldChange (gene CLUL1, ribociclib versus control (DMSO)): -1.122
log2FoldChange (gene CNTLN, ribociclib versus control (DMSO)): -1.032
log2FoldChange (gene CRYBB3, ribociclib versus control (DMSO)): 1.002
log2FoldChange (gene CSTF3-DT, ribociclib versus control (DMSO)): -1.225
log2FoldChange (gene CTCFL, ribociclib versus control (DMSO)): -1.08
log2FoldChange (gene CTSV, ribociclib versus control (DMSO)): -1.015
log2FoldChange (gene DDB2, ribociclib versus control (DMSO)): -1.1772
log2FoldChange (gene DDIAS, ribociclib versus control (DMSO)): -1.022
log2FoldChange (gene DEK, ribociclib versus control (DMSO)): -1.375
log2FoldChange (gene DEPDC1-AS1, ribociclib versus control (DMSO)): -1.123
log2FoldChange (gene DHRS13, ribociclib versus control (DMSO)): -1.029
log2FoldChange DNAJC12 (gene DNAJC12, ribociclib versus control (DMSO)): 1.413
log2FoldChange (gene DNMT1, ribociclib versus control (DMSO)): -1.1
log2FoldChange (gene DNMT3B, ribociclib versus control (DMSO)): -1.0461
log2FoldChange (gene DSCC1, ribociclib versus control (DMSO)): -1.04
log2FoldChange (gene ELF4, ribociclib versus control (DMSO)): -1.322
log2FoldChange EPPK1 (gene EPPK1, ribociclib versus control (DMSO)): 1.4048
log2FoldChange (gene ETV7, ribociclib versus control (DMSO)): -1.664
log2FoldChange (gene EXOSC9, ribociclib versus control (DMSO)): -1.023
log2FoldChange (gene EZH2, ribociclib versus control (DMSO)): -1.144
log2FoldChange FABP4 (gene FABP4, ribociclib versus control (DMSO)): 1.432
log2FoldChange (gene FAM72B, ribociclib versus control (DMSO)): -1.051
log2FoldChange (gene GAREM2, ribociclib versus control (DMSO)): -1.096
log2FoldChange (gene HIST1H2BC, ribociclib versus control (DMSO)): -1.077
log2FoldChange HLA-DRA (gene HLA-DRA, ribociclib versus control (DMSO)): 1.429
log2FoldChange (gene HMGB1, ribociclib versus control (DMSO)): -1.03
log2FoldChange HOGA1 (gene HOGA1, ribociclib versus control (DMSO)): 1.382
log2FoldChange (gene HTR1D, ribociclib versus control (DMSO)): -1.006
log2FoldChange HTR2A (gene HTR2A, ribociclib versus control (DMSO)): 1.369
log2FoldChange (gene ICA1, ribociclib versus control (DMSO)): 1.015
log2FoldChange (gene KCNT1, ribociclib versus control (DMSO)): -1.142
log2FoldChange (gene KIAA1211L, ribociclib versus control (DMSO)): 1.012
log2FoldChange (gene KIF20B, ribociclib versus control (DMSO)): -1.0525
log2FoldChange (gene KPNA2, ribociclib versus control (DMSO)): -1.137
log2FoldChange (gene LAMC3, ribociclib versus control (DMSO)): -1.019
log2FoldChange LINC00299 (gene LINC00299, ribociclib versus control (DMSO)): 1.338
log2FoldChange LINC00452 (gene LINC00452, ribociclib versus control (DMSO)): 1.339
log2FoldChange LINC00710 (gene LINC00710, ribociclib versus control (DMSO)): 1.422
log2FoldChange (gene LINC00836, ribociclib versus control (DMSO)): 1.012
log2FoldChange LINC01208 (gene LINC01208, ribociclib versus control (DMSO)): 1.412
log2FoldChange LINC01954 (gene LINC01954, ribociclib versus control (DMSO)): 1.371
log2FoldChange (gene LINC02290, ribociclib versus control (DMSO)): 1.014
log2FoldChange LINC02767 (gene LINC02767, ribociclib versus control (DMSO)): 1.39
log2FoldChange (gene LINC02775, ribociclib versus control (DMSO)): 1.012
log2FoldChange (gene LKAAEAR1, ribociclib versus control (DMSO)): -1.045
log2FoldChange (gene LMNB2, ribociclib versus control (DMSO)): -1.082
log2FoldChange (gene LRP1, ribociclib versus control (DMSO)): 1.0088
log2FoldChange LST1 (gene LST1, ribociclib versus control (DMSO)): 1.3665
log2FoldChange (gene MCM6, ribociclib versus control (DMSO)): -1.226
log2FoldChange MYO7A (gene MYO7A, ribociclib versus control (DMSO)): 1.39
log2FoldChange (gene MYO19, ribociclib versus control (DMSO)): -1.01
log2FoldChange NMUR2 (gene NMUR2, ribociclib versus control (DMSO)): 1.413
log2FoldChange NNMT (gene NNMT, ribociclib versus control (DMSO)): 1.392
log2FoldChange OVCH2 (gene OVCH2, ribociclib versus control (DMSO)): 1.393
log2FoldChange (gene PAQR4, ribociclib versus control (DMSO)): -1.3195
log2FoldChange (gene PCDH11X, ribociclib versus control (DMSO)): 1.0028
log2FoldChange (gene PIM1, ribociclib versus control (DMSO)): -1.008
log2FoldChange (gene POGLUT3, ribociclib versus control (DMSO)): -1.083
log2FoldChange (gene POLE2, ribociclib versus control (DMSO)): -1.137
log2FoldChange (gene PRC1-AS1, ribociclib versus control (DMSO)): -1.1038
log2FoldChange (gene PRTFDC1, ribociclib versus control (DMSO)): -1.034
log2FoldChange (gene PURPL, ribociclib versus control (DMSO)): -1.008
log2FoldChange (gene RAB39A, ribociclib versus control (DMSO)): -1.006
log2FoldChange (gene RFC2, ribociclib versus control (DMSO)): -1.015
log2FoldChange (gene RFC5, ribociclib versus control (DMSO)): -1.124
log2FoldChange (gene RMI2, ribociclib versus control (DMSO)): -1.054
log2FoldChange (gene RNASEH2A, ribociclib versus control (DMSO)): -1.0155
log2FoldChange (gene RUSC1, ribociclib versus control (DMSO)): -1.029
log2FoldChange (gene SEMA3C, ribociclib versus control (DMSO)): 1.014
log2FoldChange (gene SERPINI2, ribociclib versus control (DMSO)): 1.018
log2FoldChange (gene SHISA3, ribociclib versus control (DMSO)): -1.036
log2FoldChange (gene SKP2, ribociclib versus control (DMSO)): -1.016
log2FoldChange (gene SLC30A2, ribociclib versus control (DMSO)): 1.0021
log2FoldChange (gene SMCO4, ribociclib versus control (DMSO)): -1.118
log2FoldChange (gene SRGAP3-AS4, ribociclib versus control (DMSO)): 1.012
log2FoldChange (gene SSRP1, ribociclib versus control (DMSO)): -1.137
log2FoldChange STMN4 (gene STMN4, ribociclib versus control (DMSO)): 1.398
log2FoldChange (gene STOML3, ribociclib versus control (DMSO)): -1.027
log2FoldChange (gene SVIP, ribociclib versus control (DMSO)): -1.1001
log2FoldChange TCAF2 (gene TCAF2, ribociclib versus control (DMSO)): 1.391
log2FoldChange (gene TFDP1, ribociclib versus control (DMSO)): -1.008
log2FoldChange (gene TFPI2, ribociclib versus control (DMSO)): -1.099
log2FoldChange (gene TMEM132B, ribociclib versus control (DMSO)): 1.009
log2FoldChange (gene TRAPPC3L, ribociclib versus control (DMSO)): 1.013
log2FoldChange (gene TTPA, ribociclib versus control (DMSO)): -1.03
log2FoldChange (gene TUBB4B, ribociclib versus control (DMSO)): -1.232
log2FoldChange (gene TUBG1, ribociclib versus control (DMSO)): -1.028
log2FoldChange WNT9B (gene WNT9B, ribociclib versus control (DMSO)): 1.386
log2FoldChange (gene Z94721.3, ribociclib versus control (DMSO)): -1.366
log2FoldChange (gene ZBBX, ribociclib versus control (DMSO)): 1.016
